Permeability data for macrocyclic peptides

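The data file gives no further conditions (lipid, pH, time, direction or concentration), and values from different papers need not be comparable. The list need not hold all peptides of the study. Entries at the database's floor value (log10 P of -10) are not listed.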

PAMPA measures passive passage through an artificial lipid membrane.
P is given in units of 10^-6 cm/s (from log10 values with two decimals); larger means faster passage.

| SMILES | PAMPA (10^-6 cm/s) |
|---|---|
| CC(=O)N1CCC[C@@H]1C(=O)N(C)[C@@H](CC(C)C)C(=O)N[C@@H]1C(=O)N(C)[C@H](CC(C)C)C(=O)N[C@@H](CC(C)C)C(=O)N(C)[C@@H](CC(C)C)C(=O)N(C)[C@@H](C)C(=O)N[C@H](CC(C)C)C(=O)N2CCC[C@@H]2C(=O)O[C@@H]1C | 2.2 |
| CC(=O)N1CCC[C@@H]1C(=O)N(C)[C@@H](CC(C)C)C(=O)N[C@@H]1C(=O)N(C)[C@@H](CC(C)C)C(=O)N(C)[C@H](CC(C)C)C(=O)N(C)[C@@H](CC(C)C)C(=O)N(C)[C@@H](C)C(=O)N[C@H](CC(C)C)C(=O)N2CCC[C@H]2C(=O)O[C@@H]1C | 5.1 |
| CC(=O)N1CCC[C@H]1C(=O)N(C)[C@H](CC(C)C)C(=O)N[C@@H]1C(=O)N[C@H](CC(C)C)C(=O)N(C)[C@@H](CC(C)C)C(=O)N(C)[C@H](CC(C)C)C(=O)N[C@@H](C)C(=O)N[C@@H](CC(C)C)C(=O)N2CCC[C@@H]2C(=O)O[C@@H]1C | 5.1 |
| CC(=O)N1CCC[C@H]1C(=O)N(C)[C@H](CC(C)C)C(=O)N[C@@H]1C(=O)N(C)[C@H](CC(C)C)C(=O)N(C)[C@H](CC(C)C)C(=O)N(C)[C@H](CC(C)C)C(=O)N[C@@H](C)C(=O)N[C@H](CC(C)C)C(=O)N2CCC[C@H]2C(=O)O[C@@H]1C | 0.001 |
| CC(=O)N1CCC[C@H]1C(=O)N(C)[C@@H](CC(C)C)C(=O)N[C@@H]1C(=O)N[C@@H](CC(C)C)C(=O)N[C@@H](CC(C)C)C(=O)N[C@@H](CC(C)C)C(=O)N(C)[C@H](C)C(=O)N[C@@H](CC(C)C)C(=O)N2CCC[C@H]2C(=O)O[C@@H]1C | 0.62 |
| CC(=O)N1CCC[C@@H]1C(=O)N(C)[C@H](CC(C)C)C(=O)N[C@@H]1C(=O)N(C)[C@H](CC(C)C)C(=O)N[C@H](CC(C)C)C(=O)N(C)[C@H](CC(C)C)C(=O)N[C@@H](C)C(=O)N[C@@H](CC(C)C)C(=O)N2CCC[C@H]2C(=O)O[C@@H]1C | 0.17 |
| CC(=O)N1CCC[C@@H]1C(=O)N(C)[C@@H](CC(C)C)C(=O)N[C@@H]1C(=O)N(C)[C@H](CC(C)C)C(=O)N(C)[C@H](CC(C)C)C(=O)N(C)[C@@H](CC(C)C)C(=O)N(C)[C@@H](C)C(=O)N[C@@H](CC(C)C)C(=O)N2CCC[C@@H]2C(=O)O[C@@H]1C | 3.8 |
| CC(=O)N1CCC[C@H]1C(=O)N(C)[C@H](CC(C)C)C(=O)N[C@@H]1C(=O)N[C@H](CC(C)C)C(=O)N(C)[C@H](CC(C)C)C(=O)N[C@H](CC(C)C)C(=O)N(C)[C@H](C)C(=O)N[C@H](CC(C)C)C(=O)N2CCC[C@H]2C(=O)O[C@@H]1C | 5.2 |
| CC(=O)N1CCC[C@H]1C(=O)N(C)[C@@H](CC(C)C)C(=O)N[C@@H]1C(=O)N(C)[C@H](CC(C)C)C(=O)N[C@H](CC(C)C)C(=O)N[C@H](CC(C)C)C(=O)N[C@@H](C)C(=O)N[C@@H](CC(C)C)C(=O)N2CCC[C@H]2C(=O)O[C@@H]1C | 0.34 |
| CC(=O)N[C@@H]1C(=O)N2CCC[C@H]2C(=O)N(C)[C@H](CC(C)C)C(=O)N[C@H](CC(C)C)C(=O)N[C@H](CC(C)C)C(=O)N[C@H](CC(C)C)C(=O)N[C@H](C)C(=O)N[C@@H](CC(C)C)C(=O)N2CCC[C@@H]2C(=O)O[C@@H]1C | 0.034 |
| CC(=O)N1CCC[C@@H]1C(=O)N(C)[C@@H](CC(C)C)C(=O)N[C@@H]1C(=O)N[C@@H](CC(C)C)C(=O)N[C@H](CC(C)C)C(=O)N[C@H](CC(C)C)C(=O)N[C@@H](C)C(=O)N[C@@H](CC(C)C)C(=O)N2CCC[C@H]2C(=O)O[C@@H]1C | 0.095 |
| CC(=O)N1CCC[C@H]1C(=O)N(C)[C@H](CC(C)C)C(=O)N[C@@H]1C(=O)N(C)[C@@H](CC(C)C)C(=O)N(C)[C@@H](CC(C)C)C(=O)N(C)[C@H](CC(C)C)C(=O)N(C)[C@H](C)C(=O)N[C@@H](CC(C)C)C(=O)N2CCC[C@@H]2C(=O)O[C@@H]1C | 6.8 |
| CC(=O)N1CCC[C@H]1C(=O)N[C@@H]1C(=O)N[C@H](CC(C)C)C(=O)N[C@@H](CC(C)C)C(=O)N[C@@H](CC(C)C)C(=O)N[C@H](CC(C)C)C(=O)N[C@H](C)C(=O)N[C@@H](CC(C)C)C(=O)N2CCC[C@@H]2C(=O)O[C@@H]1C | 0.71 |
| CC(=O)N1CCC[C@H]1C(=O)N(C)[C@@H](CC(C)C)C(=O)N[C@@H]1C(=O)N[C@@H](CC(C)C)C(=O)N[C@@H](CC(C)C)C(=O)N(C)[C@@H](CC(C)C)C(=O)N(C)[C@@H](C)C(=O)N[C@@H](CC(C)C)C(=O)N2CCC[C@H]2C(=O)O[C@@H]1C | 0.32 |
| CC(=O)N1CCC[C@@H]1C(=O)N(C)[C@@H](CC(C)C)C(=O)N[C@@H]1C(=O)N[C@@H](CC(C)C)C(=O)N[C@@H](CC(C)C)C(=O)N(C)[C@@H](CC(C)C)C(=O)N[C@@H](C)C(=O)N[C@@H](CC(C)C)C(=O)N2CCC[C@H]2C(=O)O[C@@H]1C | 0.81 |
| CC(=O)N1CCC[C@H]1C(=O)N(C)[C@@H](CC(C)C)C(=O)N[C@@H]1C(=O)N[C@H](CC(C)C)C(=O)N(C)[C@@H](CC(C)C)C(=O)N[C@@H](CC(C)C)C(=O)N[C@@H](C)C(=O)N[C@H](CC(C)C)C(=O)N2CCC[C@H]2C(=O)O[C@@H]1C | 0.81 |
| CC(=O)N1CCC[C@H]1C(=O)N(C)[C@@H](CC(C)C)C(=O)N[C@@H]1C(=O)N(C)[C@@H](CC(C)C)C(=O)N(C)[C@@H](CC(C)C)C(=O)N(C)[C@@H](CC(C)C)C(=O)N(C)[C@H](C)C(=O)N[C@@H](CC(C)C)C(=O)N2CCC[C@H]2C(=O)O[C@@H]1C | 4.9 |
| CC(=O)N1CCC[C@H]1C(=O)N(C)[C@H](CC(C)C)C(=O)N[C@@H]1C(=O)N(C)[C@@H](CC(C)C)C(=O)N[C@@H](CC(C)C)C(=O)N[C@H](CC(C)C)C(=O)N[C@@H](C)C(=O)N[C@H](CC(C)C)C(=O)N2CCC[C@@H]2C(=O)O[C@@H]1C | 0.13 |
| CC(=O)N1CCC[C@@H]1C(=O)N(C)[C@H](CC(C)C)C(=O)N[C@@H]1C(=O)N[C@H](CC(C)C)C(=O)N(C)[C@H](CC(C)C)C(=O)N[C@H](CC(C)C)C(=O)N[C@H](C)C(=O)N[C@@H](CC(C)C)C(=O)N2CCC[C@@H]2C(=O)O[C@@H]1C | 0.14 |

Again, the 2 entries with the lowest PAMPA:

SMILES	PAMPA (10^-6 cm/s)
CC(=O)N1CCC[C@H]1C(=O)N(C)[C@H](CC(C)C)C(=O)N[C@@H]1C(=O)N(C)[C@H](CC(C)C)C(=O)N(C)[C@H](CC(C)C)C(=O)N(C)[C@H](CC(C)C)C(=O)N[C@@H](C)C(=O)N[C@H](CC(C)C)C(=O)N2CCC[C@H]2C(=O)O[C@@H]1C	0.001
CC(=O)N[C@@H]1C(=O)N2CCC[C@H]2C(=O)N(C)[C@H](CC(C)C)C(=O)N[C@H](CC(C)C)C(=O)N[C@H](CC(C)C)C(=O)N[C@H](CC(C)C)C(=O)N[C@H](C)C(=O)N[C@@H](CC(C)C)C(=O)N2CCC[C@@H]2C(=O)O[C@@H]1C	0.034

Values of Kelly et al. 2021, doi:10.1021/jacs.0c06115, as listed in CycPeptMPDB.